# Measured values as given in US10988459B2 (priority 2015, dated 2021).
# Protein sequences, listed by entry. Tags and fused reporters are not part of them. Residues count along the entry.
# UniProt Q13546, 2-375 limits assumed: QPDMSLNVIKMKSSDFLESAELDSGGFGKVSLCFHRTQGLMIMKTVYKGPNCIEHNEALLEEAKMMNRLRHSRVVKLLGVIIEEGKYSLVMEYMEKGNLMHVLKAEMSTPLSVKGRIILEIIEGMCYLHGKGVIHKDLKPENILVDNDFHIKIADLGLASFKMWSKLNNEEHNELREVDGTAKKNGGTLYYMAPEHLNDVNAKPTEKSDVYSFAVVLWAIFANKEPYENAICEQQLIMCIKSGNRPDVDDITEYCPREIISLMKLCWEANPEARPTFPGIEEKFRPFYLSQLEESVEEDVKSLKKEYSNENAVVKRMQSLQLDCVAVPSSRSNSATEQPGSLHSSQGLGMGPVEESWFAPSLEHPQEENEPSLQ
# Target: human RIP1 kinase domain (2-375) (Homo sapiens (Human), UniProt Q13546)
# Conditions: read-out: RIP1 Ki, 50 uM ATP, 2 hours incubation, Transcreener ADP assay
compound,measurement,value
CN1C(=O)C(NC(=O)c2cc3c(cn2)cnn3[C@@H]2CCOC2)COc2ccccc21 (stereo partly drawn),Ki,0.0415 µM
CC[C@]1(C)Cc2c(C(=O)N[C@H]3COc4ccccc4N(C)C3=O)n[nH]c2CO1,Ki,0.106 µM
CC[C@@]1(C)Cc2c(C(=O)N[C@H]3COc4ccccc4N(C)C3=O)n[nH]c2CO1,Ki,0.414 µM
